In series [1] the test system is kidney cancer cell (Caki-1). The experiment in a line: Cell viability (calcein-AM / ethidium homodimer-1), Caki-1. The settings on record: epoxomicin 40 nM alone, 24 h. The method, then:
(§1) Strains of cervical cancer cell (HeLa), kidney cancer cell (Caki-1), brain tumor cell (T98G), breast cancer cell (MDA-MB 435S), and colon cancer cell (DLD-1), multiple myeloma cell (RPMI-8226), and a strain of normal breast epithelial cell (MCF-10A) were available from ATCC (American Type Culture Collection, USA). The strains of cervical cancer cell (HeLa), kidney cancer cell (Caki-1), brain tumor cell (T98G), breast cancer cell (MDA-MB 435S), and colon cancer cell (DLD-1) were cultured by using a DMEM medium including 10% fetal bovine serum (FBS), 2 mM of L-glutamin, 100 i.u./ml of penicillin, and […] of streptomycin for the culture and maintenance; multiple myeloma cell (RPMI-8226) was cultured by using a RPMI1640 medium including 10% FBS, 100 i.u./ml of penicillin, and […] of streptomycin; and the strain of normal breast epithelial cell (MCF-10A) was cultured by using a mammary epithelial growth medium (MEGM) including a bovine pituitary extract, insulin, human epidermal growth factor, hydrocortisone, and antibiotics, and the culture conditions included 37° C. and 5% CO2 in an incubator.
(§2) Then, the cells were stained by using 2 μM calcein-AM and 4 μM ethidium homodimer-1, and cell viability was measured by using a fluorescent microscope (Axiovert 200M, available from Carl Zeiss, Jena, Germany).

The test system of series [2] is breast cancer cell (MDA-MB 435S). Nature of the series: Cell viability (calcein-AM / ethidium homodimer-1), MDA-MB 435S. The conditions noted are these: 24 h. As for the experimental part:
as §1, §2

Series [3] relates to colon cancer cell (DLD-1). The experiment in a line: Cell viability (calcein-AM / ethidium homodimer-1), DLD-1. The conditions noted are these: epoxomicin 40 nM alone, 24 h. As for the experimental part: as §1, §2
For a further series, the system named is brain tumor cell (T98G). Nature of the series: Cell viability (calcein-AM / ethidium homodimer-1), T98G. The conditions noted are these: loperamide 20 μM alone, 24 h. As for the experimental part: as §1, §2

In the case of `CC[C@H](C)[C@H](NC(=O)[C@H]([C@@H](C)CC)N(C)C(C)=O)C(=O)N[C@H](C(=O)N[C@@H](CC(C)C)C(=O)[C@@]1(C)CO1)[C@@H](C)O` [Epoxomicin], the Cell viability in series [1] is recorded as 66.45; in series [2] (epoxomicin 7.5 nM alone), 86.50; in series [2] (epoxomicin 15 nM alone), 81.52; in series [3], 94.06.
Regarding `CN(C)C(=O)C(CCN1CCC(O)(c2ccc(Cl)cc2)CC1)(c1ccccc1)c1ccccc1` [Loperamide], the Cell viability in the series with brain tumor cell (T98G) is reported as 90.40.
